Measured values: ChEMBL document CHEMBL1806408, “Design-driven LO: the discovery of new ultra long acting dibasic β2-adrenoceptor agonists” (Bioorg Med Chem Lett, 2011)
pEC50: −log10 of the molar value.

The chains behind the UniProt entries cited, without tags or fusion partners.
UniProt P08588, whole entry: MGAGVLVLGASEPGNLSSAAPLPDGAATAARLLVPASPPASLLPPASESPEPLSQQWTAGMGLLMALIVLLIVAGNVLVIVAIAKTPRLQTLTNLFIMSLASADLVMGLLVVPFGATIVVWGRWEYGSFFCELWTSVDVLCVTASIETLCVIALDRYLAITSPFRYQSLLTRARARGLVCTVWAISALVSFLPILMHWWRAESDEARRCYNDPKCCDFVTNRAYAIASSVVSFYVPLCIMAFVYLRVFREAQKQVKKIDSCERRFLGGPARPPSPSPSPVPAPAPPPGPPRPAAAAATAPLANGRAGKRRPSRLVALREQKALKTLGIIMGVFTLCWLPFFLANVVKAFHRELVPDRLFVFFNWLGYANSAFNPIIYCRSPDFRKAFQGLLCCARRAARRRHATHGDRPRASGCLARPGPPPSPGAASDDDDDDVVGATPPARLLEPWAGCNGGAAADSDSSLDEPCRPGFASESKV

Experiments:
[1] = molecular target: Beta-1 adrenergic receptor (Homo sapiens, UniProt P08588)
Cavia porcellus = species on record: Cavia porcellus; experiment: animal or person; conditions: inhaled or nasal

| pEC50 [1] | SMILES | ED80 (Cavia porcellus) |
| --- | --- | --- |
| 7.00 | O=c1[nH]c2c(O)ccc([C@@H](O)CNCCSCCCNCCc3cccc(Cl)c3Cl)c2s1 | – |
| 7.50 | O=c1[nH]c2c(O)ccc([C@@H](O)CNCCOCCCNCCc3cccc(Cl)c3)c2s1 | – |
| – | COc1ccc(CC(C)NCC(O)c2ccc(O)c(NC=O)c2)cc1 (stereo not drawn) [FORMOTEROL] | 1 µg/kg |
